Reference: ChEMBL document CHEMBL1150977, “A quantitative analysis of kinase inhibitor selectivity” (Nat Biotechnol, 2008)

The chains behind the UniProt entries cited, without tags or fusion partners. Where a name states a change or a piece, a line headed by the entry shows the natural chain unless it says otherwise.
UniProt Q05655: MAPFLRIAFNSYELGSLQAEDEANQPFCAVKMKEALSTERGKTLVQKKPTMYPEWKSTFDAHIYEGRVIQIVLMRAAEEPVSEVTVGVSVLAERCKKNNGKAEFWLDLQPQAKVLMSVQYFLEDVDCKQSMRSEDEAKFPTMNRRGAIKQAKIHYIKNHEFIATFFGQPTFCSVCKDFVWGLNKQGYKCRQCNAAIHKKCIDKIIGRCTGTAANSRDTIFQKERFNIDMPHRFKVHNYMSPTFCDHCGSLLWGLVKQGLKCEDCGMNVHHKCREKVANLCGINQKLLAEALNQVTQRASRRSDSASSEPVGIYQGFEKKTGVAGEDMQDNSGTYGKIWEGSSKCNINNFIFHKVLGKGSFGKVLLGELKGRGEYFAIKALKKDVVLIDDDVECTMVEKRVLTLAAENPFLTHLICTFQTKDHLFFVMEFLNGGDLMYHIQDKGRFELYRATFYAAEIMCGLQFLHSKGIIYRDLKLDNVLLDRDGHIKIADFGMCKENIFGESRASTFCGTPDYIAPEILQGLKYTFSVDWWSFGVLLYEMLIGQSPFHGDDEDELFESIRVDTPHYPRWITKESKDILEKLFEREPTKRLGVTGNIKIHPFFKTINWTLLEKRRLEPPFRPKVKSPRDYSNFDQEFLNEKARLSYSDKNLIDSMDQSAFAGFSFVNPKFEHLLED
UniProt P48730: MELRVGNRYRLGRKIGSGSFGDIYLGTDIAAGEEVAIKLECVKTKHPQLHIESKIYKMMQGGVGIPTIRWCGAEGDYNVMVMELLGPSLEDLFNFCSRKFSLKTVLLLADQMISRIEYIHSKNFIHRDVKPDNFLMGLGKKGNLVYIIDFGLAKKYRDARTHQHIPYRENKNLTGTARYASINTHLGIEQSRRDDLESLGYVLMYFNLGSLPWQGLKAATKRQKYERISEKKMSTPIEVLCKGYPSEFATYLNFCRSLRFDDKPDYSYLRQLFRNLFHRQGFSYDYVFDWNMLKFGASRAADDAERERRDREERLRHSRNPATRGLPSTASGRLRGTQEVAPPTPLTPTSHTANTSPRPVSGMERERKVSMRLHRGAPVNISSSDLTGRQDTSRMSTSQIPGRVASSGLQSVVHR

Legend:
[1] = biological target: Protein kinase C delta type (Homo sapiens, UniProt Q05655)
[2] = biological target: T1, Serine/threonine-protein kinase 17A (Homo sapiens, UniProt Q9UEE5)
T1 sequence (Q9UEE5 whole entry): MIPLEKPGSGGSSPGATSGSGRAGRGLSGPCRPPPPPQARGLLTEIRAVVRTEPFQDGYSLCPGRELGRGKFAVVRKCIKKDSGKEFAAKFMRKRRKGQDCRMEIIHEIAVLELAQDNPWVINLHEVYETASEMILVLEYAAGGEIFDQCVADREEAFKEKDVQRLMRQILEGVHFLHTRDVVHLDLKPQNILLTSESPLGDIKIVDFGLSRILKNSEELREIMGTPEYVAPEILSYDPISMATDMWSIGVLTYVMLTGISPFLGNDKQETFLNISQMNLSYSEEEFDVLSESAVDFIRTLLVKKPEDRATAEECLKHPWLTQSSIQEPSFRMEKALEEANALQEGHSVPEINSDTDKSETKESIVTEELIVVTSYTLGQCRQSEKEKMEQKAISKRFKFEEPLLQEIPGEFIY

[3] = biological target: Casein kinase I isoform delta (Homo sapiens, UniProt P48730)

SMILES | Kd [1] [nM] | Kd [2] [nM] | Kd [3] [nM]
CCOc1cc2ncc(C#N)c(Nc3ccc(F)c(Cl)c3)c2cc1NC(=O)/C=C/CN(C)C [PELITINIB] | 4600 | 200 | 
NC(=O)c1ccc(-c2nc(-c3ccc4c(c3)OCO4)c(-c3ccccn3)[nH]2)cc1 [SB-431542] |  |  | 170
